Screening results: PubChem BioAssay, several laboratories
In the library only some 0.45% were active in any assay of this set; here they are far more common.
PglD inh = blocks C. jejuni PglD acetyltransferase activity | inhibition, % at 12.5 µM | 360,000 compounds, 0.098% hits | purified PglD enzyme, DTNB colorimetric CoA detection; in the data active = inhibition above about 16%, passing the limit was not always enough
Tn6 DDE FP = disrupts Tn6 cyclic peptide binding to fibrin D-Dimer-E complex; P02675; Fibrin DD(E) TRITC-Tn6 fluorescence polarization displacement; inhibition, % at 8.3 µM; 370,000 compounds, 0.21% hits; AID 720509;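 active = inhibition above a per-campaign cutoff: mean of compounds within control limits plus 3 SD, cut at about 15% in these data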;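 also: 0% = median of all compound wells on the plate and 100% = blocking peptide control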
Yeast UUG start-1 = alters start codon recognition fidelity in yeast. S. cerevisiae UUG-firefly luciferase reporter, luminescence/redox ratio. AID 602363. activity score, % at 18.7 µM. hit rate 0.13% among 350,000;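 active = replicate mean at a twofold rise or more, about +100% in these data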;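 note: firefly luciferase made from a UUG start codon reports start codon fidelity; reporter light over untreated wells divided by growth signal over untreated wells; some hits fall short of that in this replicate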
DDE Tn7 FP inh = disrupts Tn7 cyclic peptide binding to fibrin D-Dimer-E complex. P02675. 370,000 compounds, 0.13% hits. AID 720508. inhibition, % at 8.3 µM. FP displacement of FITC-Tn7 peptide from fibrin DD(E); 0% = median of compound wells per plate;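 active = inhibition above the mean of compounds falling within the control limits plus 3 SD of them, cut at about 14% in these data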;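 also: 0% = plate median of compound wells and 100% = 10 µM Aha-Tn7 peptide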
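Assay system: Fibrin-DD(E) protein isolated from polymerized human fibrin clots; read-out basis: percent inhibition; medium: Tris/NaCl/CaCl2 buffer, pH 7.8; signal: FP measurement; incubation: 10 min plus 3 h, room temperature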
Yeast UUG start-2 = yeast start codon fidelity modulation | S. cerevisiae UUG-start firefly luciferase, luminescence, 4 h; 100% means double the DMSO signal | activation, % at 38 µM | shares compounds with Yeast UUG start-1 | 540 tested, under 10 active | AID 652061;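 active = signal increase whose fitted curve reaches an absolute level of 40 at a concentration under 10 µM; inactive = activity opposite to the expected increase, or the rest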
Starred values were filed as active, the others as inactive; i = inactive; nt = no result.

SMILES,PglD inh,Tn6 DDE FP,Yeast UUG start-1,DDE Tn7 FP inh,Yeast UUG start-2
COc1ccc(NC(=O)COc2ccc(-c3nn(C)c(=O)c4ccccc34)cc2)cc1,2.5,6.1,-0.3,8.1,nt
COc1ccc(CCNC(=O)Cc2nn(C)c(=O)c3ccccc23)cc1OC,3.6,-6.2,6.1,-11.0,-7.6
Cn1nc(CC(=O)Nc2ncc(Br)s2)c2ccccc2c1=O,3.0,1.5,-20.1,3.4,nt
Cn1nc(CC(=O)NC2CCCCCCCCCCC2)c2ccccc2c1=O,-0.5,1.9,-16.4,-0.3,nt
COc1ccc(NC(=O)Cc2nn(C)c(=O)c3ccccc23)cc1,nt,nt,nt,nt,i
Cn1nc(CC(=O)Nc2ccc(OC(=O)c3ccccc3)cc2)c2ccccc2c1=O,nt,nt,nt,nt,i
COc1ccc(CCNC(=O)CNC(=O)c2nn(-c3ccc(OC)c(OC)c3)c(=O)c3ccccc23)cc1OC,14.9,-1.8,-5.0,0.8,nt
Cn1nc(CC(=O)Nc2ccc3c(c2)CCC3)c2ccccc2c1=O,1.0,-4.0,-9.7,-1.2,-3.5
COCC(=O)Nc1ccc2c(c1)C(=O)N(C)C[C@H](OC)[C@@H](C)CN(C(=O)c1cnccn1)[C@@H](C)CO2,-2.5,nt,-3.7,nt,nt
CNC(=O)C[C@H]1CC[C@H]2[C@H](COc3ccc(NC(=O)c4ccc(C(F)(F)F)cc4)cc3C(=O)N2C)O1,-1.7,nt,-2.2,nt,nt
C[C@@H]1CN([C@@H](C)CO)C(=O)Cc2cc(NS(=O)(=O)c3ccccc3)ccc2O[C@H]1CN(C)Cc1ccc(C(F)(F)F)cc1,3.2,nt,159.4*,nt,i
C[C@@H]1CCCCO[C@H](CN(C)Cc2ccccc2)[C@H](C)CN([C@@H](C)CO)C(=O)c2cc(NC(=O)c3ccccc3)ccc2O1,0.9,nt,12.0,nt,nt
C[C@H]1CCCCO[C@@H](CN(C)Cc2ccccc2)[C@@H](C)CN([C@@H](C)CO)C(=O)c2cc(NC(=O)c3ccccc3)ccc2O1,-0.3,nt,147.1*,nt,i
CC(C)NC(=O)N(C)C[C@@H]1Oc2ccc(NC(=O)Nc3cccc4ccccc34)cc2C(=O)N([C@@H](C)CO)C[C@@H]1C,-3.5,nt,150.5*,nt,i
C[C@H]1CCCCO[C@H](CN(C)C(=O)Nc2ccc(C(F)(F)F)cc2)[C@@H](C)CN([C@@H](C)CO)C(=O)c2cc(NC(=O)Nc3ccc4c(c3)OCO4)ccc2O1,3.5,nt,-14.3,nt,nt
COc1ccc(C#Cc2ccc3c(c2)[C@]2(C(=O)N3)[C@H](c3ccc(OCCO)cc3)N3[C@H](c4ccccc4)[C@H](c4ccccc4)OC(=O)[C@H]3[C@@H]2C(=O)NC[C@H](O)c2ccccc2)cc1,0.6,nt,32.8,nt,nt
O=C(CN1CCOCC1)N[C@H]1CC[C@@H](CCn2cc(C3CCCCC3)nn2)O[C@H]1CO,2.4,nt,nt,nt,nt
CCNC(=O)[C@@H]1[C@@H](CO)[C@@H]2Cn3c(ccc(-c4ccc(OC)cc4)c3=O)[C@@H]2N1Cc1ccccc1,2.0,nt,nt,nt,nt
CCCc1nc(-c2ccc(-c3ccc(F)cc3)cc2)no1,2.0,-3.1,-8.8,-5.6,nt
CCCc1nc(-c2cc3ccccc3[nH]c2=O)no1,-0.2,7.2,226.9*,6.3,12.7
COc1cc(OC)cc(C(=O)Nc2cccc(NC(=O)c3cccs3)c2)c1,6.6,5.0,123.8*,-3.8,18.3
COc1ccc(C(=O)Nc2cccc(NC(=O)c3cccs3)c2)cc1,0.0,-8.5,-4.4,-0.6,nt
COc1ccc(Nc2cc(C)nc(NCc3ccccc3)n2)cc1,5.6,3.5,623.9*,1.5,-6.5
Cc1ccc(Nc2cc(C)nc(NCc3ccccc3)n2)cc1,nt,-4.7,nt,-7.2,nt
CC(=O)N1CSCC1C(=O)NNS(=O)(=O)c1ccccc1 (stereo not given),6.3,4.7,124.0*,7.8,-5.7

The closing 2 compounds of the part above lead into the next.
SMILES,PglD inh,Tn6 DDE FP,Yeast UUG start-1,DDE Tn7 FP inh,Yeast UUG start-2
Cc1ccc(Nc2cc(C)nc(NCc3ccccc3)n2)cc1,nt,-4.7,nt,-7.2,nt
CC(=O)N1CSCC1C(=O)NNS(=O)(=O)c1ccccc1 (stereo not given),6.3,4.7,124.0*,7.8,-5.7
Cc1c(C(=O)C(C)C)n(C)c2ccccc12,-5.2,-3.8,434.9*,6.9,18.1
Cn1c(C(=O)O)c(C=O)c2ccccc21,-4.9,-7.7,-8.7,7.0,nt
COc1cccc(Oc2ccc(OC)cc2C(=O)O)c1,7.5,-2.4,117.3*,8.7,-16.5
CO[C@H]1CN(C)C(=O)c2cc(NC(=O)C3CC3)ccc2OC[C@@H](C)N(C(=O)c2ccccc2F)C[C@H]1C,-0.4,nt,nt,nt,nt
CCOC(=O)C1CCN(Cc2cnc(NC(=O)OC)s2)CC1,-2.8,-2.1,-10.7,-2.5,nt
CCOC(=O)C1CCN(Cc2cnc(Oc3ccc(C(C)(C)C)cc3)s2)CC1,2.8,-5.5,126.7*,-7.9,4.0
C[C@@H]1CN([C@@H](C)CO)C(=O)c2cc(NS(=O)(=O)c3ccc(F)cc3)ccc2O[C@@H](C)CCCCO[C@@H]1CN(C)C(=O)Nc1cccc2ccccc12,-1.1,nt,11.7,nt,nt
CCC(=O)Nc1ccc2c(c1)C(=O)N(C)C[C@H](OC)[C@@H](C)CN(C(=O)CC)[C@@H](C)CO2,2.9,nt,nt,nt,nt
O=C(CN1CCCc2ccccc21)N/N=C/c1ccccc1O,-2.3,6.7,66.9*,0.3,10.0
CC(=O)N(C)C[C@@H]1[C@@H](c2ccc(C3=CCCCC3)cc2)[C@@H](CO)N1CC1CC1,-0.7,nt,15.1,nt,nt
COc1ccc(OC)c(C(C(=O)NCc2ccco2)N(C(=O)Cn2nnc3ccccc32)C2CC2)c1 (stereo not given),nt,0.7,nt,-5.1,nt
COc1ccc(OC)c(C(C(=O)NCc2ccco2)N(C(=O)Cn2nnc3ccccc32)C(C)C)c1 (stereo not given),-0.8,3.7,196.3*,-3.1,17.5
CCN(CC)CC(=O)N1c2ccccc2CCc2ccc(NC(=O)c3cc(OC)c(OC)c(OC)c3)cc21,-5.0,-5.1,active,-2.2,-0.3
Cc1cccc(C(=O)Nc2cccnc2Cl)c1,-2.1,3.6,145.9*,-8.2,0.7
CC(C)C#Cc1ccc2c(c1)O[C@@H](CN(C)Cc1ccccn1)[C@@H](C)CN([C@H](C)CO)S2(=O)=O,-0.2,nt,60.6*,nt,i
C[C@@H](O)C#Cc1ccc2c(c1)O[C@@H](CN(C)Cc1cncnc1)[C@@H](C)CN([C@@H](C)CO)S2(=O)=O,-4.1,nt,103.2*,nt,i
C/C=C/c1ccc2c(c1)O[C@@H](CN(C)Cc1cncnc1)[C@@H](C)CN([C@H](C)CO)S2(=O)=O,4.6,nt,109.6*,nt,i
CC(=O)N(C)C[C@@H]1Oc2cc(C#C[C@@H](C)O)ccc2S(=O)(=O)N([C@@H](C)CO)C[C@@H]1C,3.4,nt,121.2*,nt,i
C[C@H](O)C#Cc1ccc2c(c1)O[C@H](CN(C)Cc1cncnc1)[C@@H](C)CN([C@@H](C)CO)S2(=O)=O,-3.0,nt,-0.1,nt,nt
C[C@@H]1CN([C@H](C)CO)C(=O)c2cc(C3=CCCC3)cnc2O[C@@H]1CN(C)Cc1ccccn1,1.0,nt,-17.4,nt,nt
COc1ccc(NC(=O)Nc2ccc3c(c2)C(=O)N([C@@H](C)CO)C[C@H](C)[C@H](CN(C)S(=O)(=O)c2ccc(F)cc2)OCCCC[C@@H](C)O3)cc1,2.2,nt,-13.5,nt,nt
C[C@@H]1CN([C@@H](C)CO)C(=O)Cc2cc(NS(C)(=O)=O)ccc2O[C@H]1CN(C)C(=O)Nc1ccc2c(c1)OCO2,3.0,nt,-6.8,nt,nt

Reformatted with two lines to a compound: entries from further up.
Under each structure – PglD inh | Tn6 DDE FP | Yeast UUG start-1 | DDE Tn7 FP inh | Yeast UUG start-2
C[C@@H]1CN([C@@H](C)CO)C(=O)c2cc(NS(=O)(=O)c3ccc(F)cc3)ccc2O[C@@H](C)CCCCO[C@@H]1CN(C)C(=O)Nc1cccc2ccccc12
    -1.1 | nt | 11.7 | nt | nt
CCC(=O)Nc1ccc2c(c1)C(=O)N(C)C[C@H](OC)[C@@H](C)CN(C(=O)CC)[C@@H](C)CO2
    2.9 | nt | nt | nt | nt
